{"sequences": {"note": "Protein sequences, listed by entry. Tags and fused reporters are not part of them. Lines headed by an entry give the natural chain unless they say otherwise; changes in a name come on top.", "UniProt P54132": "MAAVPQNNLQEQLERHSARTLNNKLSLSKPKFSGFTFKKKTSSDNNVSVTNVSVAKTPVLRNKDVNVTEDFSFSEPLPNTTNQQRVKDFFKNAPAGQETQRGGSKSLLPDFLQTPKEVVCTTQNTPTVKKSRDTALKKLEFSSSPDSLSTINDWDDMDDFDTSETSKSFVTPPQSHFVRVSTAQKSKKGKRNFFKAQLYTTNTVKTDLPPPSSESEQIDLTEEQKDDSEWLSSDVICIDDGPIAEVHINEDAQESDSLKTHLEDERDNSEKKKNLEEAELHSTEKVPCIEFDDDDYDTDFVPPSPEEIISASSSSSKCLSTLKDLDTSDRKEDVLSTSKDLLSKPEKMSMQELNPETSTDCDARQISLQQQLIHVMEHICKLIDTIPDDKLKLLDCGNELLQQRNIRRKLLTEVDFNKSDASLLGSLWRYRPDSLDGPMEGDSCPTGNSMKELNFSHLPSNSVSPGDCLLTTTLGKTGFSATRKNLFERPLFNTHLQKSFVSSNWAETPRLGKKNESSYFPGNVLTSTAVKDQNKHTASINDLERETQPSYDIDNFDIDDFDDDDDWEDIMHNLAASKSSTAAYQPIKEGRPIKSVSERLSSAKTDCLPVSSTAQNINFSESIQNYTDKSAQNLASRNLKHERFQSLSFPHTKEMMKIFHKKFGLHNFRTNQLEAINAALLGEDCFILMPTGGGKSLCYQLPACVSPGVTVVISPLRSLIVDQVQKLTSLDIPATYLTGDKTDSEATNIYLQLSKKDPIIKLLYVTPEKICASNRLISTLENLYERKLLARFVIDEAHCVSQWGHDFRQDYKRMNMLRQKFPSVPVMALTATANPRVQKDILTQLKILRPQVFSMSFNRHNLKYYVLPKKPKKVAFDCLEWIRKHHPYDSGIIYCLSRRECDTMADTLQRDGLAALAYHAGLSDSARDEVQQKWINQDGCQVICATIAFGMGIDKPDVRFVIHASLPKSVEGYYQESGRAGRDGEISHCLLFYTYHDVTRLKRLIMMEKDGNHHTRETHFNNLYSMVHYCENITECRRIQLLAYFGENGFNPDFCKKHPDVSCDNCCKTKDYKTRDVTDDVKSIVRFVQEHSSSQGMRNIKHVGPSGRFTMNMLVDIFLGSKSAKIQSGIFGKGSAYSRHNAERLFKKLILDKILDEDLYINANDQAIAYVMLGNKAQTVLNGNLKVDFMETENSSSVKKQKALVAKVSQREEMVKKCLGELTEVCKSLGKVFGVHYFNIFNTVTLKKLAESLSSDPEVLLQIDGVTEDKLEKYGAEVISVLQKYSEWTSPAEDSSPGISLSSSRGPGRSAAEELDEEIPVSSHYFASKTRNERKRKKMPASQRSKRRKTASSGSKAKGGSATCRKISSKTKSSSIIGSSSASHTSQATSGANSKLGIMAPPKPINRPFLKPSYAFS"}, "source": "ChEMBL document CHEMBL2424634", "about": "“Synthesis and SAR studies of 5-(pyridin-4-yl)-1,3,4-thiadiazol-2-amine derivatives as potent inhibitors of Bloom helicase” (Bioorg Med Chem Lett, 2013)", "target": "RecQ-like DNA helicase BLM (Homo sapiens, UniProt P54132)", "assay": "Inhibition of BLM (unknown origin) by gel-based DNA unwinding assay"}
{"smiles": "O=C(Nc1ccc(F)c(C(F)(F)F)c1)Nc1nnc(-c2ccncc2)s1", "values": [{"measurement": "IC50", "result": 1800, "unit": "nM"}]}
